Laboratory results as given in patent US20230233540A1, “COMBINATION OF ANTIBODY-DRUG CONJUGATE AND CDK9 INHIBITOR” (AstraZeneca UK Limited, priority 2020, published 2023).

System: HER2 cell lines SKBR3, MDA-MB-468, KPL4 (breast cancer) and NCI-N87 (gastric cancer)
Experiment: Cell viability (CellTiter-Glo) of HER2 cancer cell lines after DS-8201 lead-in and AZD4573
Type: cell-based
Details: DS-8201 alone, 3, 30, 300 ng/mL; four cell lines
Method: Following the 6-hour incubation with AZD4573, both drugs were washed out by removing the media, adding and removing fresh phosphate-buffered saline (PBS) 2 times, and replacing the last wash with fresh culture media. The cells were then incubated for another 18 hours before assessment of cell viability using the CellTiter-Glo reagent.

Substance: trastuzumab deruxtecan [DS-8201]
- loss of cell viability: complete loss of viability is not observed
